Test results taken from paper PMC2880861 (New journal of chemistry = Nouveau journal de chimie, 2010).

Molecular target: soluble fibrin fragment DD(E)
Experiment: DD
Conditions: read-out: Ki, inhibition of binding of a fluorescent peptide to DD(E); TBS·Ca; DD(E) 1.5 μM, Fl 1 μM; uncertainties estimated at ±10%

CC(C)C[C@H](NC(=O)CN(CCNC(=O)C(CN(CCN(CC(=O)O)CC(=O)O)CC(=O)O)N(CC(=O)O)CC(=O)O)CCNC(=O)C(CN(CCN(CC(=O)O)CC(=O)O)CC(=O)O)N(CC(=O)O)CC(=O)O)C(=O)N1CCC[C@H]1C(=O)N[C@H]1CSSC[C@@H](C(=O)N[C@@H](Cc2ccc(-c3ccccc3)cc2)C(=O)N[C@@H](CC(=O)O)C(=O)NCc2cccc(CNC(=O)CN(CCNC(=O)C(CN(CCN(CC(=O)O)CC(=O)O)CC(=O)O)N(CC(=O)O)CC(=O)O)CCNC(=O)C(CN(CCN(CC(=O)O)CC(=O)O)CC(=O)O)N(CC(=O)O)CC(=O)O)c2)NC(=O)[C@H]([C@@H](C)O)NC(=O)CNC(=O)[C@H](Cc2ccc(O)cc2)NC(=O)[C@H](Cc2ccc(O)cc2)NC(=O)[C@H](CC(=O)O)NC1=O (stereo partly shown) [Compound 5]
Ki: 4.7 µM
